Protein sequences, listed by entry. Tags and fused reporters are not part of them. Residues count along the entry.
UniProt P37231, 238-505 limits assumed: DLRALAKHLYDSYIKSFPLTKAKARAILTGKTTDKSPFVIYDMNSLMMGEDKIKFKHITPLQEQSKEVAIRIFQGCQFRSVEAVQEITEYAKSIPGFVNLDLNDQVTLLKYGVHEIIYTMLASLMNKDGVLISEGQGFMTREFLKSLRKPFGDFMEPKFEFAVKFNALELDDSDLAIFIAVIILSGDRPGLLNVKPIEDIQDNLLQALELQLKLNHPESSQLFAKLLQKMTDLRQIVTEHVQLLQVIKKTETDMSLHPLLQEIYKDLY

According to publication PMC4776319 (Water research, 2015):

Target: peroxisome proliferator-activated receptor (PPARγ) (Homo sapiens, UniProt P37231)
Conditions: reference chemical

With `CN(CCOc1ccc(CC2SC(=O)NC2=O)cc1)c1ccccn1` (stereo not shown) [Rosiglitazone] as the compound, how does the EC10 read?
The EC10 was “EC10 (0.33 nM); EC50 (3.9 nM)”.
